The target in this test is recombinant human DPPI (Cathepsin C) (Homo sapiens (Human), UniProt P53634). The test can be described thus: Inhibition of human DPPI (Cathepsin C). As to conditions: substrate Gly-Arg-AMC. The test is classed as biochemical. As to the method: Inhibition of Human DPPI (Cathepsin C)
Bovine serum albumin (BSA; Prod. No. A3059) and Dithiothreitol (DTT; Prod. No D0632) were from Sigma. […] The DPP1 inhibitor Gly-Phe-DMK was purchased from MP Biomedicals (Prod.-No. 03DK00625). The recombinant human DPPI was purchased from Prozymex. All other materials were of highest grade commercially available.
The following buffers were used: MES buffer: 25 mM MES, 50 mM NaCl, 5 mM DTT, adjusted to pH 6.0, containing 0.1% BSA; TAGZyme Buffer: 20 mM NaH2PO4, 150 mM NaCl adjusted to pH 6.0 with HCl
Then, 5 μL of substrate in MES buffer (final concentration 50 μM) were added. The microtiter plates were then incubated at room temperature for 30 min. Then, the reaction was stopped by adding 10 μL of Gly-Phe-DMK in MES-buffer (final concentration 1 μM).
The analysis of the data was performed by calculating the percentage of fluorescence in the presence of test compound in comparison to the fluorescence of the vehicle control after subtracting the background fluorescence using the following formula: (RFU(sample)−RFU(background))*100/(RFU(control)−RFU(background))
Data from these calculations were used to generate IC50 values for inhibition of DPPI, respectively.

Chains of the proteins cited; added tags and fusions are not shown. Residues count along the entry.
UniProt P53634, 395-463: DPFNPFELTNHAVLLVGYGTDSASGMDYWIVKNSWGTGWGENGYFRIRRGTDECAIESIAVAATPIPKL
UniProt P53634, 25-134: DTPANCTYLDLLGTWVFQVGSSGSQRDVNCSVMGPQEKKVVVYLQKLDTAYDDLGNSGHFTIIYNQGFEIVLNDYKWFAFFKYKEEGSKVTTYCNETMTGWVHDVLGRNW
UniProt P53634, 231-394: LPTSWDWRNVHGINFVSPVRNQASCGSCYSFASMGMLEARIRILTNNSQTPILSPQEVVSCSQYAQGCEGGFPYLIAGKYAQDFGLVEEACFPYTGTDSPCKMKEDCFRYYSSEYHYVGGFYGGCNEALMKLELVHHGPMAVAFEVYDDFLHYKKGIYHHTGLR

Results on 15 compounds are retold here after patent US8987249B2, “Substituted 2-Aza-bicyclo[2.2.1]heptane-3-carboxylic acid (benzyl-cyano-methyl)-amides inhibitors of Cathepsin C” (Boehringer Ingelheim International GmbH, priority 2013, dated 2015).

As for `COCCn1cc(-c2ccc(C[C@@H](C#N)NC(=O)[C@H]3N[C@@H]4CC[C@H]3C4)c(F)c2)cn1` [Example 44], the IC50 came to 5.9 nM.

For the compound `Cc1cc(-c2ccc(C[C@@H](C#N)NC(=O)[C@H]3N[C@@H]4CC[C@H]3C4)c(F)c2)n(C)n1` [Example 63], the IC50 amounted to 9.3 nM.

For the compound `Cc1c(-c2ccc(C[C@@H](C#N)NC(=O)[C@H]3N[C@@H]4CC[C@H]3C4)c(F)c2)cnn1C` [Example 65], the IC50 came out at 9.4 nM.

For the compound `CC(C)n1cc(-c2ccc(CC(C#N)NC(=O)[C@H]3N[C@@H]4CC[C@H]3C4)c(F)c2)cn1` (stereo partly drawn) [Example 68], the IC50 amounted to 9.7 nM.

With `COc1cccc(-c2cn(-c3ccc(C[C@@H](C#N)NC(=O)[C@H]4N[C@@H]5CC[C@H]4C5)c(F)c3)nn2)c1` [Example 94], the IC50 stood at 18.7 nM.

Regarding `COCCn1cc(-c2ccc(CC(C#N)NC(=O)[C@H]3N[C@@H]4CC[C@H]3C4)c(F)c2)cn1` (stereo partly drawn) [Example 97], the 50% inhibitory concentration (IC50) was determined as 19.9 nM.

Turning to `CN1Cc2cc(-c3ccc(C[C@@H](C#N)NC(=O)[C@H]4N[C@@H]5CC[C@H]4C5)c(F)c3)ccc2S1(=O)=O` [Example 169], the IC50 came out at 4.1 nM.

With `C[C@H]1CN(C)CCN1c1ccc(C[C@@H](C#N)NC(=O)[C@H]2N[C@@H]3CC[C@H]2C3)c(F)c1` [Example 188], the IC50 was found to be 9.8 nM.

Consider `CC1CN(C)CCN1c1ccc(C[C@@H](C#N)NC(=O)[C@H]2N[C@@H]3CC[C@H]2C3)c(F)c1` (stereo partly drawn) [Example 192], for which the IC50 came out at 11.3 nM.

`N#C[C@H](Cc1ccc(C2CCN(Cc3ccccc3)CC2)cc1F)NC(=O)[C@H]1N[C@@H]2CC[C@H]1C2` [Example 219]: the IC50 is 37.4 nM.

As to `N#C[C@H](Cc1ccc(-c2ccc(S(=O)(=O)N3CCC(F)(F)CC3)cc2)cc1F)NC(=O)[C@H]1N[C@@H]2CC[C@H]1C2` [Example 246], the IC50 was found to be 5.9 nM.

With `N#C[C@H](Cc1ccc(N2CCCN3CCCC3C2)cc1F)NC(=O)[C@H]1N[C@@H]2CC[C@H]1C2` (stereo partly drawn) [Example 271], the IC50 came to 5.9 nM.

With `N#C[C@H](Cc1ccc(-n2cc(C(F)(F)F)cn2)cc1F)NC(=O)[C@H]1N[C@@H]2CC[C@H]1C2` [Example 285], the IC50 is 9.3 nM.

For `CN1CCC(C)(c2ccc(C[C@@H](C#N)NC(=O)[C@H]3N[C@@H]4CC[C@H]3C4)c(F)c2)CC1` [Example 321], the IC50 was 56.8 nM.

`N#C[C@H](Cc1ccc(N2CCN(C3CCOC3)CC2)cc1F)NC(=O)[C@H]1N[C@@H]2CC[C@H]1C2` (stereo partly drawn) [Example 331]: the IC50 is 9.3 nM.

The term IC50 denotes the concentration needed to halve the response being measured.
